# Assay results published in US9290617B2, “Method of biomolecule immobilization on polymers using click-type chemistry” (priority 2005, dated 2016).
# “Also recorded” adds a separate entry of the source.
# Tested on: HER2-overexpressing SKBR3 cancer cells
# Assay: Flow cytometry binding of anti-HER2 immuno-nanoparticles to SKBR3 cells
# Format: cell-based
# Procedure: 3.0 mg/ml copolymer nanoparticle solution in distilled water was mixed with the same volume of 0.1 mg/ml Mal-Ab 4 solution in 50 mM MES buffer of pH 5.5. The reaction solution was incubated under mild shaking at 37° C. for various time periods. The immuno-nanoparticles were purified by passing over a Sephacryl S-300HR column in PBS buffer of pH 7.4. The bound antibody was quantified by enzyme-linked immunosorbent assay (ELISA). […] It is notable that a coupling efficiency of greater than 80% was achieved after 6 h of incubation, corresponding to 27.0 μg of antibody bound per mg of nanoparticle. […] Herceptin® antibodies specifically recognize and bind with the HER2 receptor, which is overexpressed on the surface of SKBR3 breast cancer cells.
substance,measurement,value
anti-HER2 immuno-nanoparticles: monoclonal antibody Herceptin coupled with the nanoparticles by the Diels-Alder procedure,binding with SKBR3 breast cancer cells,successfully bound; also recorded: successful binding
